# Measured values published in article PMC2665022 (Biochemistry, 2009).
# B1: PutA (proline dehydrogenase domain, PutA86-630) (Escherichia coli K-12) (protein)
# chain: LPQSVSRAAITAAYRRPETEAVSMLLEQARLPQPVAEQAHKLAYQLADKLRNQKNASGRAGMVQGLLQEFSLSSQEGVALMCLAEALLRIPDKATRDALIRDKISNGNWQSHIGRSPSLFVNAATWGLLFTGKLVSTHNEASLSRSLNRIIGKSGEPLIRKGVDMAMRLMGEQFVTGETIAEALANARKLEEKGFRYSYDMLGEAALTAADAQAYMVSYQQAIHAIGKASNGRGIYEGPGISIKLSALHPRYSRAQYDRVMEELYPRLKSLTLLARQYDIGINIDAEESDRLEISLDLLEKLCFEPELAGWNGIGFVIQAYQKRCPLVIDYLIDLATRSRRRLMIRLVKGAYWDSEIKRAQMDGLEGYPVYTRKVYTDVSYLACAKKLLAVPNLIYPQFATHNAHTLAAIYQLAGQNYYPGQYEFQCLHGMGEPLYEQVTGKVADGKLNRPCRIYAPVGTHETLLAYLVRRLLENGANTSFVNRIADTSLPLDELVADPVTAVEKLAQQEGQTGLPHPKIPLPRDLYGHGRDNSAGLDLANEHRL
# What was measured:
# [1] = target: PutA (proline dehydrogenase domain, PutA86-630) (Escherichia coli, UniProt P09546, Y540S)
# [2] = target: PutA (proline dehydrogenase domain, PutA86-630) (Escherichia coli, UniProt P09546, Y540A); details: read-out: Ki for THFA
# [3] = target: PutA (proline dehydrogenase domain, PutA86-630) (Escherichia coli, UniProt P09546); details: read-out: Ki for THFA
# [4] = substrate: O=C(O)[C@@H]1CCCN1; test: purified protein; details: FAD active site; 25.0 °C
molecule,measurement,setting,value
Cc1cc2nc3c(=O)[nH]c(=O)nc-3n(C[C@H](O)[C@H](O)[C@H](O)COP(=O)(O)OP(=O)(O)OC[C@H]3O[C@@H](n4cnc5c(N)ncnc54)[C@H](O)[C@@H]3O)c2cc1C [FAD],"X-ray crystal structure (1.85 Å, oxidized, with THFA)",[1],with the FAD cofactor bound at the C-terminal ends of the strands of the barrel
"O=C(O)[C@@H]1CCCO1 [compound 6, L-tetrahydro-2-furoic acid]",Ki,[2],7.9 ± 0.5 mM
same,Ki,[3],0.084 ± 0.003 mM
B1,Km,[4],59 mM
same,kcat,[4],29 s⁻¹
same,kcat/Km,[4],492 M⁻¹ s⁻¹
